{
  "sequences": {"note": "Protein sequences, listed by entry. Tags and fused reporters are not part of them. Residues count along the entry.", "UniProt O42275, 24-633": "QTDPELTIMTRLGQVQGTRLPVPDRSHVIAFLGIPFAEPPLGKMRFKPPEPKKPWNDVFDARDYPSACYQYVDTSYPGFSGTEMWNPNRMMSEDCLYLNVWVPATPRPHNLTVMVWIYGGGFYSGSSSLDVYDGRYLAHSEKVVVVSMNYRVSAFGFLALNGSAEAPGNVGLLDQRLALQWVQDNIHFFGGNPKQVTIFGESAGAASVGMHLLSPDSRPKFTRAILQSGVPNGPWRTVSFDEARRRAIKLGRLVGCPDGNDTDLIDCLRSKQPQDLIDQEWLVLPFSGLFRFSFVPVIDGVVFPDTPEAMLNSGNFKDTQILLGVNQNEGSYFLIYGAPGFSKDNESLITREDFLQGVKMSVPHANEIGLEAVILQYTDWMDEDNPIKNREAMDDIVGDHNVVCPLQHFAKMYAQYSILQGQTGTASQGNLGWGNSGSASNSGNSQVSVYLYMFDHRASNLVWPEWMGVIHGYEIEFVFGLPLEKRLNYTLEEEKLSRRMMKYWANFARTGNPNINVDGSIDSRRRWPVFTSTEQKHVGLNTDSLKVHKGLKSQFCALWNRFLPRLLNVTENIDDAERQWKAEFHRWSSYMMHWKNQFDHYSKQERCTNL", "UniProt P81908, whole entry": "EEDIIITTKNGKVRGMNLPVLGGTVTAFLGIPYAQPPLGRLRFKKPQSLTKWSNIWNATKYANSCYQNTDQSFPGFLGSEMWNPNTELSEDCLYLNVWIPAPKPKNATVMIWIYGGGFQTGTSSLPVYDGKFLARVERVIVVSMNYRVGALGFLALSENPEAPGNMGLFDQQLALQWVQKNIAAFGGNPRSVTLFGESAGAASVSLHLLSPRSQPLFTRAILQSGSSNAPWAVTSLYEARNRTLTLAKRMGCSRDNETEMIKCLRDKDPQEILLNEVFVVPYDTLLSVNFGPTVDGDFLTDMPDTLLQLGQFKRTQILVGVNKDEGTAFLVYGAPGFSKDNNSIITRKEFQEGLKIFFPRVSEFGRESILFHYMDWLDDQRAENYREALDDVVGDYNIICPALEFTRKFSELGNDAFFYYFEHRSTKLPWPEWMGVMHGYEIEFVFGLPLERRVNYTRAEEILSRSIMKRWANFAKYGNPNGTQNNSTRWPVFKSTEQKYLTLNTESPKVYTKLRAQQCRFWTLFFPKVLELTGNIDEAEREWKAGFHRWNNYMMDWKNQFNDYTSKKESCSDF"},
  "source": "paper PMC7926627",
  "about": "“Fine-Tuning the Biological Profile of Multitarget Mitochondriotropic Antioxidants for Neurodegenerative Diseases” (Antioxidants, 2021)",
  "key": {"[1]": {"target": "T1, eeAChE (electric eel acetylcholinesterase) (Electrophorus electricus, UniProt O42275)", "T1 construct": "Eel acetylcholinesterase (eeAChE, E.C. 3.1.1.7, from Electrophorus electricus); purchased Sigma Aldrich", "assay": "eeAChE inhibition, Ellman's method", "format": "biochemical"}, "[2]": {"target": "T2, eqBChE (equine butyrylcholinesterase) (Equus caballus, UniProt P81908)", "T2 construct": "butyrylcholinesterase (eqBuChE, E.C. 3.1.1.8, from equine serum); purchased Sigma Aldrich; host or cells: equine serum", "assay": "biochemical", "format": "biochemical"}},
  "data": [
    {"molecule": "O=C(C=CC=Cc1ccc2c(c1)OCO2)N1CCCCC1", "note": "[Compound 1, 1-[5-(1,3-benzodioxol-5-yl)-1-oxo-2,4-pentadienyl]piperidine, reference compound]", "values": [
      {"measurement": "IC50", "setting": "[1]", "value": "> 10", "unit": "µM"},
      {"measurement": "eeAChE inhibitory activity", "setting": "[1]; at 10 µM", "value": "did not display significant"},
      {"measurement": "IC50", "setting": "[2]", "value": "> 10", "unit": "µM"},
      {"measurement": "eqBChE inhibitory activity", "setting": "[2]; at 10 µM", "value": "did not display significant"}
    ]}
  ]
}
